As a reminder, the Ki is the dissociation constant of the complex between target and ligand, obtained from inhibition or displacement. Low values mean tighter binding, high ones weaker binding.

Chains of the proteins cited; added tags and fusions are not shown. Lines headed by an entry give the natural chain unless they say otherwise; changes in a name come on top.
UniProt P41145: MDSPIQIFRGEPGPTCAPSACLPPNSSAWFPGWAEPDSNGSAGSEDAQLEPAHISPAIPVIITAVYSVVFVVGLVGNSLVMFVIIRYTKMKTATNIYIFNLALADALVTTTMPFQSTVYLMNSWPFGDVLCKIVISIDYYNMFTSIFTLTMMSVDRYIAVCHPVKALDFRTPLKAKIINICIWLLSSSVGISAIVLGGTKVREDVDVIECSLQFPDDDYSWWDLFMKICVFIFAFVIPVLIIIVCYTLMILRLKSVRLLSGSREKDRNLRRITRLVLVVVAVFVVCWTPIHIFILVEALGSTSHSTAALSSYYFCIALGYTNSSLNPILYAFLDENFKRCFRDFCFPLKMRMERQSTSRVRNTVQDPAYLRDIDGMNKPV
UniProt P41143, whole entry: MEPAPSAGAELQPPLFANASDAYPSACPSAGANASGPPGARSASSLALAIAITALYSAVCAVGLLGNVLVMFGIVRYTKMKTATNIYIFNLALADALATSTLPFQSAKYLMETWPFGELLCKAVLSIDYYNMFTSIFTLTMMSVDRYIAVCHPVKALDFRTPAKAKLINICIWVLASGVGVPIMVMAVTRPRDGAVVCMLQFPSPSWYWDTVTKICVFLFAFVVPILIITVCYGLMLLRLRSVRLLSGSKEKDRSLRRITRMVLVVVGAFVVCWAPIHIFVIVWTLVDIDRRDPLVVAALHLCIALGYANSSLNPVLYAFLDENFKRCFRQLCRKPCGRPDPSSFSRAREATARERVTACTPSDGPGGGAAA

Assay [1] deals with Kappa-type opioid receptor (Homo sapiens, UniProt P41145). Description: Displacement of [3H]U69593 from human kappa opioid receptor expressed in CHO cells. In kind it is cell-based. For orientation: Displacement assays read how much labelled ligand stays bound in the presence of the test substance.
For assay [2], the target named is T1, Delta-type opioid receptor (Homo sapiens, UniProt P41143). Description: Activity at human delta opioid receptor by [35S]GTPgammaS binding assay. In kind it is functional. Particulars: read-out: pA2 (converted). (GTPγS is a poorly hydrolysed GTP analogue; its binding reports G protein activation.)
Assay [3] deals with T1, Delta-type opioid receptor. In words: biochemical.

For the molecule `C=C1CC[C@@]2(O)[C@H]3Cc4ccc(O)c5c4[C@@]2(CCN3CC2CC2)[C@H]1O5`, in assay [1], the affinity corresponds to a Ki of 1.03 nM. Moreover, in assay [2], the Kb was 0.912 nM.

For the molecule `O=C(N[C@@H]1CC[C@@]2(O)[C@H]3Cc4ccc(O)c5c4[C@@]2(CCN3CC2CC2)[C@H]1O5)c1ccc(Cl)cc1`, in assay [3], the Ki turned out to be 1.4 nM.

The values above are taken from ChEMBL document CHEMBL1142345, “Synthesis and biological evaluation of alpha- and beta-6-amido derivatives of 17-cyclopropylmethyl-3, 14beta-dihydroxy-4, 5alpha-epoxymorphinan: potential alcohol-cessation agents” (J Med Chem, 2008).
